For part of these data: Shown are results outside the selection of strong results, which stands elsewhere. The entries are a selection whose mix differs from that of the whole data set.

Chains of the proteins cited; added tags and fusions are not shown.
UniProt P24864, whole entry, looked up: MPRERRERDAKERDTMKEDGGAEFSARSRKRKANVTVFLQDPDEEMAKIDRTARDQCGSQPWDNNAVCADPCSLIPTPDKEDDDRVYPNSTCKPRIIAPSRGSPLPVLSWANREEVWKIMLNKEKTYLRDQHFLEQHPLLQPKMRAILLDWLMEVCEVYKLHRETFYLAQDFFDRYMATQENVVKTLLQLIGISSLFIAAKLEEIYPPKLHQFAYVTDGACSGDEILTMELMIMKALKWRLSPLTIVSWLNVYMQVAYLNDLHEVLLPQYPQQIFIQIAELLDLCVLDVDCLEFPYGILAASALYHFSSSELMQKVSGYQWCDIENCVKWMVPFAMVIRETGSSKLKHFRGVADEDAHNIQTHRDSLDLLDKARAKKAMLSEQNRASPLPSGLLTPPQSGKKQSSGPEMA
UniProt O96020, whole entry, looked up: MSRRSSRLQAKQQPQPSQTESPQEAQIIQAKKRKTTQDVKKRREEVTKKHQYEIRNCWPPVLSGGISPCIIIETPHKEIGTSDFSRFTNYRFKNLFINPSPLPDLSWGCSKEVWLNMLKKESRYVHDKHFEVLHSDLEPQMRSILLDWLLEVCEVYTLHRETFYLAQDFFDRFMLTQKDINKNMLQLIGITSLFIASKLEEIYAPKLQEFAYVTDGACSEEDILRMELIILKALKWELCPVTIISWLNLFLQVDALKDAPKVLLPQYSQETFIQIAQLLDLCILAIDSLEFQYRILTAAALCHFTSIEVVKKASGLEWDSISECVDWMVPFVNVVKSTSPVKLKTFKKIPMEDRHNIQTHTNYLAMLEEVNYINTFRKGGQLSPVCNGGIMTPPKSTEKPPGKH
UniProt Q14289, whole entry, looked up: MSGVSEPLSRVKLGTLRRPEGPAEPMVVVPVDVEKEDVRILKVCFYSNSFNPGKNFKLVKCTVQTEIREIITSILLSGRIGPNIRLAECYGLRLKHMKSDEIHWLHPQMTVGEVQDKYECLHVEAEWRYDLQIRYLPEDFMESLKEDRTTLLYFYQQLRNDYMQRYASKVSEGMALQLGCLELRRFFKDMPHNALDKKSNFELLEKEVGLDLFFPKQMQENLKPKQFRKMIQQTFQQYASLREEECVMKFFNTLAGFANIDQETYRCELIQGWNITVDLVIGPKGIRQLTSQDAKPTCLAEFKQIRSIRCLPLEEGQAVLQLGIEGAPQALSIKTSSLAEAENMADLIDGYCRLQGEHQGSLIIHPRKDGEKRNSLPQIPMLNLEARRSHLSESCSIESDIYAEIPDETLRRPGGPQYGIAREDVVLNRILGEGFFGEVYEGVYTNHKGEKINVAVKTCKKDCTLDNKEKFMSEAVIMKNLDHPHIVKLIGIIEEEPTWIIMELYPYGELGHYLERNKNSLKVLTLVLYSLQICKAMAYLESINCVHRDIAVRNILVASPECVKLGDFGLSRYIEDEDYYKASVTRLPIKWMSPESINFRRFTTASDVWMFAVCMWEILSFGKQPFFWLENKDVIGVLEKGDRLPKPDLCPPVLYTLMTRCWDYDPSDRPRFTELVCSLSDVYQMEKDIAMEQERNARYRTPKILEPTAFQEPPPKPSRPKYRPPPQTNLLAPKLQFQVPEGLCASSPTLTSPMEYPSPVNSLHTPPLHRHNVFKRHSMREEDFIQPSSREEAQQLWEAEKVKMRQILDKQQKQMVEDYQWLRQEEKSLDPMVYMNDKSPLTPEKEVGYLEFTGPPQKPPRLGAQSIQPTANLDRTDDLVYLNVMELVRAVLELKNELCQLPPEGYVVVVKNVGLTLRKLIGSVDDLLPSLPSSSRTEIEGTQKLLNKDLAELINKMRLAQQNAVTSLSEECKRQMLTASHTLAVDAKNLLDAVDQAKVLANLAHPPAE

Here are results for two compounds from ChEMBL document CHEMBL2218924, “A broad activity screen in support of a chemogenomic map for kinase signalling research and drug discovery” (Biochem J, 2013).

Experiment [1] addresses Cyclin-dependent kinase 2/cyclin E (Homo sapiens) (UniProt P24864+P24941+O96020). As to conditions: at 1 µM.
Experiment [2] has as its target Protein-tyrosine kinase 2-beta (Homo sapiens) (UniProt Q14289). As to conditions: at 10 µM.

Take `O=C1Cc2c([nH]c3ccc([N+](=O)[O-])cc23)-c2ccccc2N1`: in experiment [1], the residual activity (commonly the signal under treatment as a percentage of the control signal) is 15%.
Turning to `CC#CC(=O)Nc1cc2c(Nc3ccc(F)c(Cl)c3)ncnc2cn1`, the residual activity is 102% in experiment [1] and 92% in experiment [2].
